{"source": "paper PMC6733504", "about": "“Effects of flavoring compounds used in electronic cigarette refill liquids on endothelial and vascular function” (PLoS ONE, 2019)", "target": "T1, soluble guanylate cyclase (sGC) (Bos taurus, UniProt P16068+P19687)", "T1 construct": "The activity of sGC purified from bovine lung; from tissue; host or cells: bovine lung", "T1 sequence (P19687 1-691)": "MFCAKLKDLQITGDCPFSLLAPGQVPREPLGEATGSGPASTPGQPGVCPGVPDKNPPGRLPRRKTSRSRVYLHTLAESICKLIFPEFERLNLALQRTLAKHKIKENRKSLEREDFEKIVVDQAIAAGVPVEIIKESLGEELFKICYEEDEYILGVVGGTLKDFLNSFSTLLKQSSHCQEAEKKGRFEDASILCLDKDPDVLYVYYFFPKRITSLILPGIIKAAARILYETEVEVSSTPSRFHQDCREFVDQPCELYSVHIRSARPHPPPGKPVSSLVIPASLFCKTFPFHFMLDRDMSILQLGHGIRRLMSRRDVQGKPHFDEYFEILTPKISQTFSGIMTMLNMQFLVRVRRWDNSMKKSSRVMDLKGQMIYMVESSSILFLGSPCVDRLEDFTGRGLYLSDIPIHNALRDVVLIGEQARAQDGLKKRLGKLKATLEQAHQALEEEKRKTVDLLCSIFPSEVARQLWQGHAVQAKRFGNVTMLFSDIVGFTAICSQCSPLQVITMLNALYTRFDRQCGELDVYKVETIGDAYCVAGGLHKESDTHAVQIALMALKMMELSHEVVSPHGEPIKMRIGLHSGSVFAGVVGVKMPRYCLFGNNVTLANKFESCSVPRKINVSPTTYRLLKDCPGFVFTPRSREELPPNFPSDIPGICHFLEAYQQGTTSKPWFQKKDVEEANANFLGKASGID", "T1 sequence (P16068 1-619)": "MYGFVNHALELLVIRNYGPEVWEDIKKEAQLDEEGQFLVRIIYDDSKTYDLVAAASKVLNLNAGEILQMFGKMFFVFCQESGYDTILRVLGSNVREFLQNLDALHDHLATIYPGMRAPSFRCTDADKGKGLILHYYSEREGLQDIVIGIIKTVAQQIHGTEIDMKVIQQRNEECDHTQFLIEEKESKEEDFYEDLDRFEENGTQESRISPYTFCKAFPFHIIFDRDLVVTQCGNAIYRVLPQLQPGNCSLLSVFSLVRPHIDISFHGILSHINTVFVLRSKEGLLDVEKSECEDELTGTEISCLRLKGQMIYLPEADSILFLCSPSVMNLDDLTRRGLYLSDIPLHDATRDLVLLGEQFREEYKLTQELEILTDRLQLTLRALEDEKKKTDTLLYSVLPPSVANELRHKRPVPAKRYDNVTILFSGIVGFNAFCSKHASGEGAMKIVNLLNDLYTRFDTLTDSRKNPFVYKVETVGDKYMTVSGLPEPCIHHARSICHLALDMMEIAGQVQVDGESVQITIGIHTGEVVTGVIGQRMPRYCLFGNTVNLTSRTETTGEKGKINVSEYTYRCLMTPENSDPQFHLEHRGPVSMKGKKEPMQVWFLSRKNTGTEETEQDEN", "test": "Activity of purified sGC stimulated with DEA/NO", "assay_type": "biochemical, bovine", "settings": "flavoring 1 mM, DEA/NO 0.01–10 μM", "procedure": "The activity of sGC purified from bovine lung was determined as formation of [^32P]cGMP from [α-^32P]GTP. The purified enzyme (50 ng) was incubated at 37°C for 10 min in a final volume of 0.1 ml in the absence or presence of flavorings with the NO donor DEA/NO at concentrations indicated in the figure legends, followed by isolation of [^32P]cGMP and quantification of radioactivity (Cerenkov radiation) in a β counter.\nTo test for reversibility of inhibition, sGC (50 ng) was preincubated in the absence or presence of the respective compounds for 5 minutes at 37°C, followed by 50-fold dilution in the assay mixtures and incubation with DEA/NO at 37°C for 10 minutes.", "data": [{"smiles": "CC12CCC(CC1)C(C)(C)O2", "note": "[Eucalyptol, 1,3,3-Trimethyl-2-oxabicyclo[2.2.2]octane]", "values": [{"measurement": "Emax of DEA/NO-stimulated sGC activity in presence of flavoring", "value": "26±0.9", "unit": "µmol cGMP x min-1 x mg-1"}]}]}
